Data as given in US8273794B2, “Compounds and compositions for delivering active agents” (Emisphere Technologies, Inc., priority 2004, dated 2012).

Test: Human zinc insulin oral delivery in rats, serum insulin by ELISA
Conditions: oral dosing with human insulin alone, previous experiments
Procedure: Oral dosing (PO) compositions of delivery agent compound and human zinc insulin (minimum 26 IU/mg available from Calbiochem—Novabiochem Corp, La Jolla, Calif.) were prepared in deionized water. […] The solution was vortexed, then heated (about 37° C.) and sonicated. The pH was adjusted to about 7 to 8.5 with NaOH or HCl. […] About 1.25 mg insulin from an insulin stock solution (15 mg/ml made from 0.5409 g insulin and 18 ml deionized water, adjusting with HCl and NaOH to pH 8.15 and to obtain a clear solution using 40 ml concentrated HCl, 25 ml 10N NaOH and 50 ml 1N NaOH) was added to the solution and mixed by inverting.
A dosing group of five animals was administered one of the dosing solutions. […] The syringe was filled with dosing solution by drawing the solution through the catheter, which was then wiped dry. The catheter was placed down the esophagus leaving 1 cm of tubing past the incisors. The dosing solution was administered by pressing the syringe plunger.
Serum insulin levels were determined with an Insulin ELISA Test Kit (Kit # DSL-10-1600 from Diagnostic Systems Laboratories, Inc., Webster, Tex.), modifying the standard protocol in order to optimize the sensitivity and linear range of the standard curve for the volumes and concentrations of the samples used in the present protocol. […]

human insulin
levels of human insulin following oral dosing: no measurable levels
